# Reference: PubChem BioAssay AID434979 (Johns Hopkins Ion Channel Center, 2010)
# This is a selection; strong and weak results do not stand in their true shares. Some of these compounds have results that are not shown, active ones among them. Active and inactive are the calls of the source.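 How the source made its calls: active means signal rise over 3 SD above mean of control wells given weak agonist, in both repeats and first screen; inactive means the rest.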
# Tested on: TRPC4 (mouse), co-expressed with 5HT1a in HEK293
# Test: enhancement of serotonin-evoked TRPC4 response – cell-based, second counter screen, HEK293 TRPC4/5HT1a, Fluo-4, counter-screen for TRPC4 potentiator project, confirmation (AID 434979)
# Details: Fluo-4 calcium flux, at 10 µM, serotonin added at its EC20 dose
row,Structure (SMILES),outcome
1,CN(C)c1ccc(C(=O)NCC2(N(C)C)CCCCC2)cc1,inactive
